From US10828316B2, “Method of treating bacterial infections” (priority 2016, dated 2020)

System: E. cloacae strain no 6
Experiment: MIC
Format: cell-based
Settings: Enterobacter cloacae
[1] = NO6, E. cloacae strain 6, 5 uM thymidine, uridine 0 μg/ml, read-out: MIC

SMILES: O=c1[nH]cnc2c1ncn2[C@H]1CC[C@@H](CO)O1 [Didanosine, didanosine]
- MIC (NO6, read-out: MIC Didanosine, E. cloacae strain 6, trimethoprim 0, uridine 0 μg/ml): > 30 mg/L
- MIC (NO6, read-out: MIC Didanosine, E. cloacae strain 6, trimethoprim 0, uridine 10 μg/ml): > 30 mg/L
- MIC (NO6, read-out: MIC Didanosine, E. cloacae strain 6, trimethoprim 1 μg/ml, uridine 0 μg/ml): 1 to 2.5 mg/L (≈ 4.23 to 10.6 µM)
- MIC (NO6, read-out: MIC Didanosine, E. cloacae strain 6, trimethoprim 1 μg/ml, uridine 10 μg/ml): 0.1 to 0.5 mg/L (≈ 0.423 to 2.12 µM)
- MIC (NO6, read-out: MIC Didanosine, E. cloacae strain 6, trimethoprim 2 μg/ml, uridine 0 μg/ml): > 2.5 mg/L
- MIC (NO6, read-out: MIC Didanosine, E. cloacae strain 6, trimethoprim 2 μg/ml, uridine 10 μg/ml): > 2.5 mg/L

SMILES: COc1cc(Cc2cnc(N)nc2N)cc(OC)c1OC [Trimethoprim, trimethoprim]
- MIC [1]: < 20 mg/L
- MIC (NO6, E. cloacae strain 6, 5 uM thymidine, uridine 10 μg/ml, read-out: MIC): < 20 mg/L
- MIC (NO6, E. cloacae strain 6, 5 uM thymidine, uridine 100 μg/ml, read-out: MIC): < 20 mg/L

SMILES: Cc1cn([C@H]2C[C@H](N=[N+]=[N-])[C@@H](CO)O2)c(=O)[nH]c1=O [AZT, 3′-azido-3′-deoxythymidine]
- MIC [1]: 5 to 10 mg/L (≈ 18.7 to 37.4 µM)
- MIC (NO6, read-out: MIC AZT, E. cloacae strain 6, thymidine 0 μM, uridine 0): 5 to 10 mg/L (≈ 18.7 to 37.4 µM)
- MIC (NO6, read-out: MIC AZT, E. cloacae strain 6, thymidine 0 μM, uridine 100 and trimethoprim 1 μg/ml): ≤ 0.001 mg/L
- MIC (NO6, read-out: MIC AZT, E. cloacae strain 6, thymidine 10 μM, uridine 0): 5 to 10 mg/L (≈ 18.7 to 37.4 µM)
- MIC (NO6, read-out: MIC AZT, E. cloacae strain 6, thymidine 10 μM, uridine 100 μg/ml): 5 to 10 mg/L (≈ 18.7 to 37.4 µM)
- MIC (NO6, read-out: MIC AZT, E. cloacae strain 6, thymidine 10 μM, uridine 100 and trimethoprim 1 μg/ml): 0.05 to 0.1 mg/L (≈ 0.187 to 0.374 µM)
- MIC (NO6, read-out: MIC AZT, E. cloacae strain 6, thymidine 30 μM, uridine 0): 5 to 10 mg/L (≈ 18.7 to 37.4 µM)
- MIC (NO6, read-out: MIC AZT, E. cloacae strain 6, thymidine 30 μM, uridine 100 μg/ml): > 10 mg/L
- MIC (NO6, read-out: MIC AZT, E. cloacae strain 6, thymidine 30 μM, uridine 100 and trimethoprim 1 μg/ml): > 0.1 mg/L
- MIC (NO6, read-out: MIC of AZT, E. cloacae strain 6, trimethoprim 1 μg/ml, uridine 0 μg/ml): 0 to 0.05 mg/L
- MIC (NO6, read-out: MIC of AZT, E. cloacae strain 6, trimethoprim 1 μg/ml, uridine 10 μg/ml): 0 to 0.05 mg/L
- MIC (NO6, read-out: MIC of AZT, E. cloacae strain 6, trimethoprim 1 μg/ml, uridine 100 μg/ml): 0 to 0.05 mg/L
- MIC (NO6, read-out: MIC of AZT, E. cloacae strain 6, trimethoprim 2 μg/ml, uridine 0 μg/ml): 0 to 0.05 mg/L
- MIC (NO6, read-out: MIC of AZT, E. cloacae strain 6, trimethoprim 2 μg/ml, uridine 10 μg/ml): 0 to 0.05 mg/L
- MIC (NO6, read-out: MIC of AZT, E. cloacae strain 6, trimethoprim 2 μg/ml, uridine 100 μg/ml): 0 to 0.05 mg/L
- MIC (NO6, read-out: MIC of AZT, E. cloacae strain no 6, uridine 0 μg/ml): 10 to 20 mg/L
- MIC (NO6, read-out: MIC of AZT, E. cloacae strain no 6, uridine 10 μg/ml): 5 to 10 mg/L
- MIC (NO6, read-out: MIC of AZT, E. cloacae strain no 6, uridine 50 μg/ml): 5 to 10 mg/L
- MIC (NO6, read-out: MIC of AZT, E. cloacae strain no 6, uridine 100 μg/ml): 2 to 5 mg/L
- MIC (NO6, read-out: MIC of AZT, E. cloacae strain no 6, uridine 200 μg/ml): 2 to 5 mg/L
- MIC (NO6, read-out: MIC of AZT, Table 4, E. cloacae strain 6, trimethoprim 0, uridine 0 μg/ml): 10 to 20 mg/L
- MIC (NO6, read-out: MIC of AZT, Table 4, E. cloacae strain 6, trimethoprim 0, uridine 10 μg/ml): 5 to 10 mg/L
- MIC (NO6, read-out: MIC of AZT, Table 4, E. cloacae strain 6, trimethoprim 0, uridine 100 μg/ml): 2 to 5 mg/L
- MIC (NO6, read-out: MIC of AZT, Table 4, E. cloacae strain 6, trimethoprim 0, uridine 200 μg/ml): 2 to 5 mg/L

≈ marks a conversion by molar mass, not a printed value. Where two headings read alike, the source gives them in different places.
